Reference: ChEMBL document CHEMBL1240489, “Discovery of N-{1-[3-(3-oxo-2,3-dihydrobenzo[1,4]oxazin-4-yl)propyl]piperidin-4-yl}-2-phenylacetamide (Lu AE51090): an allosteric muscarinic M1 receptor agonist with unprecedented selectivity and procognitive potential” (J Med Chem, 2010)

Organism: Homo sapiens
Assay: Protein binding in human plasma at 0.1 uM after 60 mins by LC/MS-MS analysis
Conditions: read-out: PPB (converted)

SMILES: O=C(Cc1ccccc1)NC1CCN(CCCN2C(=O)COc3ccccc32)CC1
- fraction unbound at 1 h, 0.1 µM: 0.28
